Substitutions are numbered along the chain they refer to.

The target in assay [1] is PARM-pWT (semisynthetic human Mint2 364-570; R455K, C483A, C501A, Y524W, C566A) (human) (UniProt Q99767). The assay can be described thus: stopped-flow fluorescence kinetics.
For assay [2], the target named is T1, Mint2 PARM 364-570 (Y524W, Y543A) (Homo sapiens, UniProt Q99767, Y524W/Y543A).
T1 sequence (Q99767 364-570 Y524W/Y543A): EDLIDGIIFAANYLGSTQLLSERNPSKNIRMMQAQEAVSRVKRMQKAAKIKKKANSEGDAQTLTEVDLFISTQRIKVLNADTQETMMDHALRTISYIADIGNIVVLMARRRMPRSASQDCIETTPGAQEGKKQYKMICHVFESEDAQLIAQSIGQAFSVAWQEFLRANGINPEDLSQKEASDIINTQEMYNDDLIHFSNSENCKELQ
As to the kind of experiment: Stopped flow binding kinetics, APP peptides to PARM^Y543A. Details: PARM domain (residues 364–570, i.e., PTB and the ARM linker); made in house; host or cells: Escherichia coli BL21(DE3)pLysS. Here is the method:
(§1) Kinetic binding rate constants were obtained using an upgraded SX17 stopped flow spectrometer (Applied Photophysics), and all experiments were conducted at 25 °C in 500 mM NaCl and 25 mM HEPES (pH 7.4). The relatively high NaCl concentration was used to improve the solubility of the proteins. The change in tryptophan fluorescence was measured using a band-pass filter (excitation at 280 nm and emission at 330 ± 30 nm) when mixing varying concentrations (2–50 μM) of the dansyl peptides with 1 μM protein or 0.5 μM semisynthetic proteins. […] For PTB variants, we used the kobs value from the fast kinetic phase for the analysis. […] We report the errors in kon and koff from the curve fitting. […] For these koff determinations, we report the standard error of the mean of three replicates. Φ values were defined as ΔΔGTS/ΔΔGeq, where ΔΔGTS = RT ln(kon^WT/kon^mut.) and ΔΔGeq = RT ln(Kd^mut./Keq^WT). Calculated coupling free energies were defined as ΔΔΔGEq = RT ln(Kd^mut.:WTKd^WT:mut./Kd^WT:WTKd^mut.:mut.) or ΔΔΔGTS = RT ln(kon^WT:WTkon^mut.:mut./kon^mut.:WTkon^WT:mut.) as previously described.[27] Propagated errors are reported.

In assay [3] the target is T2, Mint2 PARM 364-570 (Y524W, Y543E) (Homo sapiens, UniProt Q99767, Y524W/Y543E).
T2 sequence (Q99767 364-570 Y524W/Y543E): T1 sequence (Q99767 364-570 Y524W/Y543A) with A180E
As to the kind of experiment: Stopped flow binding kinetics, APP peptides to PARM^Y543E. Details: PARM domain (residues 364–570, i.e., PTB and the ARM linker); made in house; host or cells: Escherichia coli BL21(DE3)pLysS. The procedure:
as §1

In assay [4] the target is T3, Mint2 PARM 364-570 (Y524W), pWT PARM (PTB domain and ARM linker) (Homo sapiens, UniProt Q99767, Y524W).
T3 construct: PARM domain (residues 364–570, i.e., PTB and the ARM linker) containing the Y524W mutation; made in house; host or cells: Escherichia coli BL21(DE3)pLysS
T3 sequence (Q99767 364-570 Y524W): T1 sequence (Q99767 364-570 Y524W/Y543A) with A180Y
As to the kind of experiment: Stopped flow binding kinetics, APP peptides to PARM (pseudo-wild type). The procedure:
as §1

Assay [5] concerns the target T4, Mint2 PTB 364-538 (without the ARM linker) (Homo sapiens, UniProt Q99767, Y524W).
T4 construct: PTB without the ARM linker (residues 364–538); made in house; host or cells: Escherichia coli BL21(DE3)pLysS
T4 sequence (Q99767 364-538 Y524W): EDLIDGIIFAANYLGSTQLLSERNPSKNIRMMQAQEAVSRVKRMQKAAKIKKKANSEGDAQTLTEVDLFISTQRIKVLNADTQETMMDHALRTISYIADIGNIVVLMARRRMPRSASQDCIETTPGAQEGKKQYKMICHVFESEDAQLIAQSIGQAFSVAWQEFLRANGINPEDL
The assay can be described thus: Stopped flow binding kinetics, APP peptides to PTB. The procedure:
as §1

The target of assay [6] is T1, Mint2 PARM 364-570 (Y524W, Y543A). The assay can be described thus: biochemical.
The target in assay [7] is Mint2 PARMWT 364-570 (Homo sapiens, UniProt Q99767). The assay can be described thus: biochemical.
Assay [8] concerns the target Mint2 PTB 364-538 (Homo sapiens, UniProt Q99767, Y524W). The assay can be described thus: biochemical.
Assay [9] addresses Mint2 PARM 364-570 (Y524W) (Homo sapiens, UniProt Q99767, Y524W). As to the kind of experiment: biochemical.
Assay [10] has as its target T2, Mint2 PARM 364-570 (Y524W, Y543E). As to the kind of experiment: biochemical.

In assay [1], “Dansyl-APP^E758ε (Dansyl-NNG-NGYεNPTYKFFE), amide-to-ester variant (peptide)” registered a koff of 18.1 s⁻¹ and a kon of 560000 M⁻¹ s⁻¹.
`C[C@H](NC(=O)[C@H](CC(N)=O)NC(=O)[C@H](CCC(=O)O)NC(=O)[C@H](Cc1ccc(O)cc1)NC(=O)CNC(=O)[C@H](CC(N)=O)NC(=O)CNC(=O)[C@H](CC(N)=O)NC(=O)[C@H](CC(N)=O)NS(=O)(=O)c1cccc2c(N(C)C)cccc12)C(=O)N[C@H](C(=O)N[C@@H](Cc1ccc(O)cc1)C(=O)N[C@@H](CCCCN)C(=O)N[C@@H](Cc1ccccc1)C(=O)N[C@@H](Cc1ccccc1)C(=O)N[C@@H](CCC(=O)O)C(=O)O)[C@@H](C)O` [Peptide P760A]: the Kd in [2] is 19 ± 0.7 µM; in assay [3], 19 ± 0.2 µM; in assay [4] it was 56 ± 2 µM; in assay [5], 2.3 µM.
On to `C[C@@H](O)[C@H](NC(=O)[C@@H]1CCCN1C(=O)[C@H](CC(N)=O)NC(=O)[C@H](CCC(=O)O)NC(=O)[C@H](Cc1ccc(O)cc1)NC(=O)CNC(=O)[C@H](CC(N)=O)NC(=O)CNC(=O)[C@H](CC(N)=O)NC(=O)[C@H](CC(N)=O)NS(=O)(=O)c1cccc2c(N(C)C)cccc12)C(=O)N[C@@H](Cc1ccc(O)cc1)C(=O)N[C@@H](CCCCN)C(=O)NCC(=O)N[C@@H](Cc1ccccc1)C(=O)N[C@@H](CCC(=O)O)C(=O)O` [Peptide F764G], for which the Kd in [2] is 133 ± 4 µM; in [5], 8.3 µM.
For `C[C@H](NC(=O)[C@H](CCCCN)NC(=O)[C@H](Cc1ccc(O)cc1)NC(=O)[C@@H](NC(=O)[C@@H]1CCCN1C(=O)[C@H](CC(N)=O)NC(=O)[C@H](CCC(=O)O)NC(=O)[C@H](Cc1ccc(O)cc1)NC(=O)CNC(=O)[C@H](CC(N)=O)NC(=O)CNC(=O)[C@H](CC(N)=O)NC(=O)[C@H](CC(N)=O)NS(=O)(=O)c1cccc2c(N(C)C)cccc12)[C@@H](C)O)C(=O)N[C@@H](Cc1ccccc1)C(=O)N[C@@H](CCC(=O)O)C(=O)O` [Peptide F764A], the Kd is 27 ± 0.6 µM in assay [2], 26 ± 1 µM in [3], 66 ± 8 µM in [4] and 3.7 µM in assay [5]. For the same compound, the Ki was 18 ± 3 µM in assay [6]; 88 ± 4 µM in assay [7]; 5.6 µM in assay [8]; 63 ± 11 µM in assay [9]; 23 ± 0.6 µM in assay [10].
With `C[C@H](NC(=O)[C@H](Cc1ccc(O)cc1)NC(=O)[C@@H](NC(=O)[C@@H]1CCCN1C(=O)[C@H](CC(N)=O)NC(=O)[C@H](CCC(=O)O)NC(=O)[C@H](Cc1ccc(O)cc1)NC(=O)CNC(=O)[C@H](CC(N)=O)NC(=O)CNC(=O)[C@H](CC(N)=O)NC(=O)[C@H](CC(N)=O)NS(=O)(=O)c1cccc2c(N(C)C)cccc12)[C@@H](C)O)C(=O)N[C@@H](Cc1ccccc1)C(=O)N[C@@H](Cc1ccccc1)C(=O)N[C@@H](CCC(=O)O)C(=O)O` [Peptide K763A], the Kd was 2.2 µM in [2], 3.2 µM in assay [3], 6.7 µM in assay [4] and 0.53 µM in assay [5]. Also, the Ki in assay [6] was 2.5 µM; in assay [7], 9.7 µM; in [9], 6.6 µM; in [10] it was 2.7 µM.
In the case of `C[C@@H](O)[C@H](NC(=O)[C@@H]1CCCN1C(=O)[C@H](CC(N)=O)NC(=O)[C@H](CCC(=O)O)NC(=O)[C@H](Cc1ccc(O)cc1)NC(=O)CNC(=O)[C@H](CC(N)=O)NC(=O)CNC(=O)[C@H](CC(N)=O)NC(=O)[C@H](CC(N)=O)NS(=O)(=O)c1cccc2c(N(C)C)cccc12)C(=O)N[C@@H](Cc1ccc(OP(=O)(O)O)cc1)C(=O)N[C@@H](CCCCN)C(=O)N[C@@H](Cc1ccccc1)C(=O)N[C@@H](Cc1ccccc1)C(=O)N[C@@H](CCC(=O)O)C(=O)O` [Peptide Y762pY], the results for the Kd in assay [2], in assay [3] and in assay [5] were 101 ± 5 µM, 91 ± 13 µM and 7.8 µM, respectively.
As for `C[C@@H](O)[C@H](NC(=O)[C@@H]1CCCN1C(=O)[C@H](CC(N)=O)NC(=O)[C@H](CCC(=O)O)NC(=O)[C@H](Cc1ccc(O)cc1)NC(=O)CNC(=O)[C@H](CC(N)=O)NC(=O)CNC(=O)[C@H](CC(N)=O)NC(=O)[C@H](CC(N)=O)NS(=O)(=O)c1cccc2c(N(C)C)cccc12)C(=O)N[C@@H](Cc1ccccc1)C(=O)N[C@@H](CCCCN)C(=O)N[C@@H](Cc1ccccc1)C(=O)N[C@@H](Cc1ccccc1)C(=O)N[C@@H](CCC(=O)O)C(=O)O` [Peptide Y762F], the Kd in assay [2] was 1.2 µM; in [3], 1.6 µM; in [5] it was 0.22 µM.
For `C[C@@H](O)[C@H](NC(=O)CNC(=O)[C@H](CC(N)=O)NC(=O)[C@H](CCC(=O)O)NC(=O)[C@H](Cc1ccc(O)cc1)NC(=O)CNC(=O)[C@H](CC(N)=O)NC(=O)CNC(=O)[C@H](CC(N)=O)NC(=O)[C@H](CC(N)=O)NS(=O)(=O)c1cccc2c(N(C)C)cccc12)C(=O)N[C@@H](Cc1ccc(O)cc1)C(=O)N[C@@H](CCCCN)C(=O)N[C@@H](Cc1ccccc1)C(=O)N[C@@H](Cc1ccccc1)C(=O)N[C@@H](CCC(=O)O)C(=O)O` [Peptide P760G], in assay [5], the Kd is 23 ± 10 µM.
Turning to `C[C@@H](O)[C@H](NC(=O)[C@@H]1CCCN1C(=O)[C@H](CC(N)=O)NC(=O)[C@H](CCC(=O)O)NC(=O)[C@H](Cc1ccc(O)cc1)NC(=O)CNC(=O)[C@H](CC(N)=O)NC(=O)CNC(=O)[C@H](CC(N)=O)NC(=O)[C@H](CC(N)=O)NS(=O)(=O)c1cccc2c(N(C)C)cccc12)C(=O)N[C@@H](Cc1ccc(O)cc1)C(=O)NCC(=O)N[C@@H](Cc1ccccc1)C(=O)N[C@@H](Cc1ccccc1)C(=O)N[C@@H](CCC(=O)O)C(=O)O` [Peptide K763G], the Kd was 11 ± 0.4 µM in assay [3], 28 ± 0.8 µM in [4] and 1.2 µM in assay [5].
As to `C[C@@H](O)[C@H](NC(=O)[C@@H]1CCCN1C(=O)[C@H](CC(N)=O)NC(=O)[C@H](CCC(=O)O)NC(=O)[C@H](Cc1ccccc1)NC(=O)CNC(=O)[C@H](CC(N)=O)NC(=O)CNC(=O)[C@H](CC(N)=O)NC(=O)[C@H](CC(N)=O)NS(=O)(=O)c1cccc2c(N(C)C)cccc12)C(=O)N[C@@H](Cc1ccc(O)cc1)C(=O)N[C@@H](CCCCN)C(=O)N[C@@H](Cc1ccccc1)C(=O)N[C@@H](Cc1ccccc1)C(=O)N[C@@H](CCC(=O)O)C(=O)O` [Peptide Y757F], the values for the Kd in [2], in [3] and in assay [4] were 4.3 µM, 5.2 µM and 11 ± 0.6 µM, respectively. Also, the Ki in [6] is 4.4 µM; in [7] it was 13 ± 1 µM; in assay [8], 1.4 µM; in assay [9], 9.5 µM; in assay [10], 3.1 µM.

The values above are taken from publication PMC8291497 (ACS Chemical Biology, 2021).
